Key:
Dipeptidyl peptidase 1 [1] = target: T1, Dipeptidyl peptidase 1 (Homo sapiens, UniProt P53634); settings: U-937, dose 10.0 µM, time 1.0 hrs
Dipeptidyl peptidase 1 [2] = target: T1, Dipeptidyl peptidase 1; settings: U-937, dose 20.0 µM, time 1.0 hrs

The chains behind the UniProt entries cited, without tags or fusion partners. Where a name states a change or a piece, a line headed by the entry shows the natural chain unless it says otherwise.
UniProt P53634: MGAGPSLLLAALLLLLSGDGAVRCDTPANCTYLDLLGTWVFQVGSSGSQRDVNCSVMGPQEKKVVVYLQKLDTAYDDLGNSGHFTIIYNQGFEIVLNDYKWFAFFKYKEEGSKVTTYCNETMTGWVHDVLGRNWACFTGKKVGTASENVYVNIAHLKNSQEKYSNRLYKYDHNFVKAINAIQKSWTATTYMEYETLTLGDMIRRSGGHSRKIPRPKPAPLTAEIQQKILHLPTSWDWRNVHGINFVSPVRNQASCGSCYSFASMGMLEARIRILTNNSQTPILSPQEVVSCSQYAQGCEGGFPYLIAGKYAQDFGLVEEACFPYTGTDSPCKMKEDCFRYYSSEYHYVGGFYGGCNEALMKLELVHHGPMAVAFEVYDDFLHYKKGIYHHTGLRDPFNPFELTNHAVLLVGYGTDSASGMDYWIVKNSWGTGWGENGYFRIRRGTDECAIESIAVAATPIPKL

O=C1Nc2c(cccc2-c2ccc(NC3CCOCC3)cc2)/C1=C/c1ccnc2ccccc12
deltaT (Dipeptidyl peptidase 1 [1]): 4 °C | deltaT (Dipeptidyl peptidase 1 [2]): 7 °C

— ChEMBL document CHEMBL6092168, “Identification of novel indolinone derivatives as CTSC inhibitors to treat inflammatory bowel disease by modulating inflammatory factors” (Eur J Med Chem, 2024)
